Test results published in patent US7169786B2, “Isoxazoline derivatives as anti-depressants” (priority 2001, dated 2007).

By UniProt entry, the sequences of proteins in these tests, tags left out.
UniProt P18825, whole entry: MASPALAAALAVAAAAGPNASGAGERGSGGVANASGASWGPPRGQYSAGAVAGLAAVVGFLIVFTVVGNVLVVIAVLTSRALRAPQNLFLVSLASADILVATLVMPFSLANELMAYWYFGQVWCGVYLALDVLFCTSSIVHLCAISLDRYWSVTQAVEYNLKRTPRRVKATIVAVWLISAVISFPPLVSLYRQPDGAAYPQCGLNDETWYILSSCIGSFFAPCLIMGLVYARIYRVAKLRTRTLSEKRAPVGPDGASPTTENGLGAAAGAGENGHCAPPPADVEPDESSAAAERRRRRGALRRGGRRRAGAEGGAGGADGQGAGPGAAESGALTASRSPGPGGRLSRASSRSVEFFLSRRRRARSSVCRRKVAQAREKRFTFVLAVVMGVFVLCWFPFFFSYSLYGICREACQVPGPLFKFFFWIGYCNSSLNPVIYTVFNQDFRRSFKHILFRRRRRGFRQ
UniProt P08913, whole entry: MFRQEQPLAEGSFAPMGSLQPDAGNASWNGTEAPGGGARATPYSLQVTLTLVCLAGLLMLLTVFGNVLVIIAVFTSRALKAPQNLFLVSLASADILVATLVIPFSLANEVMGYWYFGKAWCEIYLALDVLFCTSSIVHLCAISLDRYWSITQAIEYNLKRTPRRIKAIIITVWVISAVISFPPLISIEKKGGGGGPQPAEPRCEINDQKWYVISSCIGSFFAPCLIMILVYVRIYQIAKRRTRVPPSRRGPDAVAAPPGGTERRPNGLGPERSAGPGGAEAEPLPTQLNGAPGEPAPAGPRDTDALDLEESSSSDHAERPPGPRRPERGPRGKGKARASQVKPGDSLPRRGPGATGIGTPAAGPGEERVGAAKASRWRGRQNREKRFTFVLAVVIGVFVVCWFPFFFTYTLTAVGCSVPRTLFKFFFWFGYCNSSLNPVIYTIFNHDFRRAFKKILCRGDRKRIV
UniProt P31645, whole entry: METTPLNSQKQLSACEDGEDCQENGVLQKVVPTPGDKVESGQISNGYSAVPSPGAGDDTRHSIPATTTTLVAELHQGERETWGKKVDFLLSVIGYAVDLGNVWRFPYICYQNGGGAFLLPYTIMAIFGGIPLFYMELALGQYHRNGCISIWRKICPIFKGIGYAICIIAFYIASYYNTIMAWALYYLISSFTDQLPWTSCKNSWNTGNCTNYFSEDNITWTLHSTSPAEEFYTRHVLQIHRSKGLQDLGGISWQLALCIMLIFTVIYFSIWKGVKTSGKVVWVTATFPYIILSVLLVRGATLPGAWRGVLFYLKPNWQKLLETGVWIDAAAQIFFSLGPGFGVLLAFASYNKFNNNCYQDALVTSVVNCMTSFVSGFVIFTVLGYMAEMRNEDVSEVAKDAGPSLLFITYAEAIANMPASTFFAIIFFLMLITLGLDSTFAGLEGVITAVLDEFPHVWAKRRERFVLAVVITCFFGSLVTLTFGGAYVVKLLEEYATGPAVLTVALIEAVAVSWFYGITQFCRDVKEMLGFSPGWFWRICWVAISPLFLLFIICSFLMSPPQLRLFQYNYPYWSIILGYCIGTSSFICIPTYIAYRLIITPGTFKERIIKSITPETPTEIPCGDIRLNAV
UniProt P18089, whole entry: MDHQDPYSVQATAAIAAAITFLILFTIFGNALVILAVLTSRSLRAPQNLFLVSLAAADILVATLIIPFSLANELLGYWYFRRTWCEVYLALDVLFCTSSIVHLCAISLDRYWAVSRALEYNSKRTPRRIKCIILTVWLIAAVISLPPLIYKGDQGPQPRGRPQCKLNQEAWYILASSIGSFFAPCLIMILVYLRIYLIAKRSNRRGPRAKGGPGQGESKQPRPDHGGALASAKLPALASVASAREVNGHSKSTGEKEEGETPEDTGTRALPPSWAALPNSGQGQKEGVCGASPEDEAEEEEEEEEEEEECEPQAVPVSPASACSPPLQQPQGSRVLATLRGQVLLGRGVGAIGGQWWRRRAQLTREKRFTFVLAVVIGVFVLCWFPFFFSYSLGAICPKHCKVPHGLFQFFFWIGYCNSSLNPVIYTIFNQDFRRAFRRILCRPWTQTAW

Tests used:
[1] = biological target: hα2C receptor (Homo sapiens, UniProt P18825); assay: Radioligand binding experiment for hα2C receptor ([3H]-raulwolscine)
[2] = biological target: hα2A receptor (Homo sapiens, UniProt P08913); assay: Radioligand binding experiment for hα2A receptor ([3H]-raulwolscine)
[3] = biological target: h5-HT transporter (Homo sapiens, UniProt P31645); assay: Radioligand binding experiment for 5-HT transporter ([3H]paroxetine, human platelet membranes)
[4] = biological target: hα2B receptor (Homo sapiens, UniProt P18089); assay: Radioligand binding experiment for hα2B receptor ([3H]-raulwolscine)
[5] = membranes of CHO cells expressing human α2C receptor, [3H]raulwolscine 1 nM

COc1cc2c(cc1OC)C1=NO[C@H](CN3CCN(C/C(C)=C/c4ccc(F)cc4)CC3)[C@H]1CO2 (relative stereo)
hα2C pIC50 [1, 5]: 8.54 | hα2A pIC50 [2]: 7.86

COc1cc2c(cc1OC)C1=NO[C@H](CN3CCN(C/C(C)=C/c4ccsc4)CC3)[C@H]1CN2 (relative stereo)
5HTT pIC50 ([3]; human platelet membranes, [3H]paroxetine 0.5 nM): 7.63 | hα2C pIC50 [1, 5]: 7.99 | hα2B pIC50 ([4]; membranes of CHO cells expressing human α2B receptor, [3H]raulwolscine 1 nM): 8.35 | hα2A pIC50 ([2]; membranes of CHO cells expressing human α2A receptor, [3H]raulwolscine 1 nM): 7.78

COc1ccc2c(c1)CC[C@H]1C2=NO[C@@H]1CN1CCN(Cc2ccc3ccccc3c2)CC1 (relative stereo)
5HTT pIC50 ([3]; tested form: HCl (1:2)): 8.36 | hα2C pIC50 ([1]; tested form: HCl (1:2)): 7.15 | hα2B pIC50 ([4]; tested form: HCl (1:2)): 7.74 | hα2A pIC50 ([2]; tested form: HCl (1:2)): 8.11

Where two headings read alike, the source gives them in different places.
